Laboratory results: ChEMBL document CHEMBL1143221, “Two-carbon-elongated HIV-1 protease inhibitors with a tertiary-alcohol-containing transition-state mimic” (J Med Chem, 2008)

Target: Protease (Human immunodeficiency virus 1, UniProt Q9YQ12)
Assay: Inhibition of HIV1 protease expressed in Escherichia coli

## CC(C)(C)NC(=O)[C@@H]1CN(Cc2cccnc2)CCN1C[C@@H](O)C[C@@H](Cc1ccccc1)C(=O)N[C@H]1c2ccccc2C[C@H]1O
  Ki: 0.52 nM
